# AlphaSeq binding of Ab-14 heavy chain variants to a spike HR2 peptide

Values reported by Engelhart et al. 2022, doi:10.1038/s41597-022-01779-4 (FLAb copy).

Target peptide (SARS-CoV-2 spike, HR2 region): PDVDLGDISGINAS

Ab-14 is the parent antibody, in scFv form: VH, then three GGGGS repeats, then VL. The light chain is unchanged in all variants.
VH: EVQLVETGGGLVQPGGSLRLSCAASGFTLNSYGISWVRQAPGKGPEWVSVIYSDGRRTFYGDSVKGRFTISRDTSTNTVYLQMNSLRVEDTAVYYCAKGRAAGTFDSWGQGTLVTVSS
VL: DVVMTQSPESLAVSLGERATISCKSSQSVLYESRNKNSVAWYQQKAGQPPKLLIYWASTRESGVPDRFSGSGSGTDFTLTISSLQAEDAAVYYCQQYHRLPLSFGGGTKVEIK

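The starting antibody came from a phage panning campaign against this peptide. AAYL49 was designed without a model: most single CDR substitutions and a random sample of double and triple ones. The scFvs were displayed on barcoded MATa yeast, the peptide on MATalpha yeast. Mating (16 h, 30 °C) was followed by selection of diploids and sequencing of their barcodes. Scores were corrected for input abundance and mapped to Kd with protein pairs of known affinity run in the same pool. The assay was run in three technical replicates.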

Each variant is given by its three heavy chain CDRs, as the data file delimits them; those of the parent are GFTLNSYGIS, VIYSDGRRTFYGDSVK, GRAAGTFDS. Scale: log10 of Kd in nM, estimated from mating counts; low values are strong binders. The mean shown is taken over the replicates in which the pair was detected. A pair that was not seen in that replicate is written "n.d."; this usually means weak binding, but a binder can also be missed.

| CDR-H1 | CDR-H2 | CDR-H3 | log10 Kd, replicates | log10 Kd (nM), mean | control signals |
|---|---|---|---|---|---|
| GFTLNHYGIS | VRYSDGRRTFYGDSVK | GRAAGQFDS | n.d. 3.72 n.d. | 3.72 | 0 of 9 |
| GFTLWSYGIS | PIYSDGRRTFYGDSVK | GRAAGTWDS | 4.40 n.d. n.d. | 4.40 | 3 of 9 (4.41) |
| GFTCNSYGKS | VIYSDGRRTFGGDSVK | GRAAGTFDS | n.d. n.d. n.d. | n.d. | 0 of 9 |
| GFTWNSYGIS | VIYSDGRFTFYGDSVK | GRANGTFDS | n.d. 3.77 3.66 | 3.72 | 0 of 9 |
| GFTLNSYGIS | VIYSDGRRTFYGDSVK | GFDAGTFDS | 1.90 1.78 1.87 | 1.85 | 6 of 9 (4.22) |
| GFTLNSYGIA | VIYSAGRRTFYGDSVK | VRAAGTFDS | n.d. n.d. n.d. | n.d. | 0 of 9 |
| GFTLNSYGWS | VIYSSGRRNFYGDSVK | GRAAGTFDS | 3.67 n.d. n.d. | 3.67 | 0 of 9 |
| GFTPNSYGIS | VINSDGRRTFYGDSVK | GRAAGTFMS | n.d. 4.15 4.42 | 4.29 | 2 of 9 (3.56) |
| GFTLNSAGIS | VIYSDGRRTFYLDSRK | GRAAGTFDS | n.d. n.d. 3.85 | 3.85 | 1 of 9 (2.93) |
| GVTLNSYGIV | QIYSDGRRTFYGDSVK | GRAAGTFDS | n.d. 4.43 2.68 | 3.56 | 4 of 9 (3.49) |
| GFTLNSYGIN | NIYSDGRRTFYGDSVQ | GRAAGTFDS | n.d. n.d. n.d. | n.d. | 0 of 9 |
| GFTLNSYGIS | VIYSDGKRTFYGDSVK | TRAAGRFDS | 4.01 3.63 n.d. | 3.82 | 2 of 9 (4.08) |
| AFTLRSYGIS | VIYSDGRRTFYGDWVK | GRAAGTFDS | n.d. n.d. n.d. | n.d. | 0 of 9 |
| GKTSNSYGIS | VIYSDGRRTFYGDSVK | GRAAGTFKS | n.d. n.d. n.d. | n.d. | 1 of 9 (3.82) |
| GFTLNVYGIS | VIYSDGCRTFYGDSVK | QRAAGTFDS | 5.15 n.d. n.d. | 5.15 | 3 of 9 (3.20) |
| GFTLNSYGIY | VIYSDGRRTFYGDSVK | GRAAGTFDS | 5.19 3.82 4.64 | 4.55 | 8 of 9 (4.55) |
| GFTLNSYGIS | KIYSDGRRTFYGDSFK | GRARGTFDS | n.d. n.d. n.d. | n.d. | 0 of 9 |
| GFTLNSYDIS | VIYEDGRRTFYGDSVK | GRAAGTFDY | n.d. n.d. n.d. | n.d. | 3 of 9 (3.98) |
| GKTLNSYGIS | VPYSDGRRTFYGDSVK | GRAAGTFDY | 3.59 n.d. n.d. | 3.59 | 3 of 9 (4.47) |
| GFTLNSYGIS | VPYSDGRRTFYGDSVK | GRAAITFDS | n.d. n.d. n.d. | n.d. | 1 of 9 (3.42) |
| GFTLNSYGIS | VTYSDGRRTFYGDRVK | GRAAGTVDS | 3.70 3.64 n.d. | 3.67 | 7 of 9 (4.24) |
| GFTLVSYGIS | VMYSDGRRTFYGDSMK | GRAAGTFDS | 4.75 n.d. 5.17 | 4.96 | 6 of 9 (4.41) |
| GFTLNTYGIS | VIHSDGRRTFYGDSVK | GRAAGTFPS | n.d. 4.10 n.d. | 4.10 | 1 of 9 (4.50) |
| DFTLNSYGIS | VIYSDGRRTFYGDSYK | GRAAGTFFS | n.d. n.d. n.d. | n.d. | 0 of 9 |
| GFTVPSYGIS | VIFSDGRRTFYGDSVK | GRAAGTFDS | n.d. 4.19 n.d. | 4.19 | 0 of 9 |
| GFTLNSYRIS | VDYSDGRRTFYGDSVK | GRAAGKFDS | n.d. n.d. n.d. | n.d. | 0 of 9 |
| GFTLNSYGIS | VITSDGRVTFYGDSVK | GRAARTFDS | 5.74 n.d. 4.81 | 5.27 | 6 of 9 (4.21) |
| GFTLNMYGIS | VIYSDGRRCFYGDSVK | GRAAGTFVS | 4.15 2.57 3.41 | 3.37 | 4 of 9 (3.89) |
| GLTNNSYGIS | VIYSDGRRTFYGDSVL | GRAAGTFDS | n.d. 5.16 n.d. | 5.16 | 1 of 9 (5.18) |
| GFTLNSYGHS | VIYSDGRRTFYGDSVH | GGAAGTFDS | n.d. n.d. n.d. | n.d. | 0 of 9 |
| GFTLNSYGIS | VIYSQGRRTFYGDSVL | GRLAGTFDS | 5.07 n.d. n.d. | 5.07 | 4 of 9 (4.34) |
| GFTLNSYWIS | VIYSDGRRTRYGDQVK | GRAAGTFDS | 3.50 2.60 3.67 | 3.26 | 2 of 9 (5.05) |
| GFTLLSYGIS | VIYSDGRRTFWGVSVK | GRAAGTFDS | 3.24 n.d. n.d. | 3.24 | 0 of 9 |
| GFTLNSYGIS | VIYKDGRRTFYGDSVK | GRALRTFDS | n.d. n.d. n.d. | n.d. | 0 of 9 |
| GFTLNSYGIS | KIYSDGRRTFYGDSVW | GRAAGTNDS | n.d. n.d. n.d. | n.d. | 0 of 9 |
| GFTLNSYGIS | VIYSDGRRTFYGDSVQ | GRPAGTFGS | 3.23 2.90 3.81 | 3.31 | 3 of 9 (3.98) |
| GFTLNSYGIS | VIYIDGRRTFYGDSLK | GRAAGTFMS | n.d. 4.78 n.d. | 4.78 | 1 of 9 (3.84) |
| GFTLNSYGIS | VIYSDGRRTDYGDSVK | GMAAGKFDS | n.d. n.d. n.d. | n.d. | 1 of 9 (1.52) |
| GHTLGSYGIS | VIYSDGRMTFYGDSVK | GRAAGTFDS | n.d. n.d. 5.71 | 5.71 | 1 of 9 (4.07) |
| GDTWNSYGIS | VIYSDGRRTFYGDSVK | GYAAGTFDS | n.d. 4.09 5.64 | 4.87 | 4 of 9 (4.29) |
| GFTLNSYGIS | VIYSDGRRTFYGDSVK | GRACATIDS | n.d. n.d. n.d. | n.d. | 0 of 9 |

Excerpt, the final 2 entries:

CDR-H1,CDR-H2,CDR-H3,"log10 Kd, replicates","log10 Kd (nM), mean",control signals
GDTWNSYGIS,VIYSDGRRTFYGDSVK,GYAAGTFDS,n.d. 4.09 5.64,4.87,4 of 9 (4.29)
GFTLNSYGIS,VIYSDGRRTFYGDSVK,GRACATIDS,n.d. n.d. n.d.,n.d.,0 of 9

Empty control strains, which show no peptide, gave a signal in 15% of pairings with library AAYL49; the median was 4.06 and 95% of these signals were weaker than 2.83. No background was subtracted. The control count says in how many pairings with the empty strains this scFv gave a signal, with their mean in brackets.